Test results as given in paper PMC12354141.

Sequences of proteins named here, by UniProt entry; tags and fusion partners are left off. Residues count along the entry.
UniProt P02745, 23-245: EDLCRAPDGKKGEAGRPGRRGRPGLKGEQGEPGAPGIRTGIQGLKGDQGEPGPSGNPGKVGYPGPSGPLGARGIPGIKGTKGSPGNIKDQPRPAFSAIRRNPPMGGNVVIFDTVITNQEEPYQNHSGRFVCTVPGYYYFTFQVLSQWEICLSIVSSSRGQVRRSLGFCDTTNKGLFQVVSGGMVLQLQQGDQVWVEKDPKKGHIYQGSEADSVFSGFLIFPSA
UniProt P02746, 28-253: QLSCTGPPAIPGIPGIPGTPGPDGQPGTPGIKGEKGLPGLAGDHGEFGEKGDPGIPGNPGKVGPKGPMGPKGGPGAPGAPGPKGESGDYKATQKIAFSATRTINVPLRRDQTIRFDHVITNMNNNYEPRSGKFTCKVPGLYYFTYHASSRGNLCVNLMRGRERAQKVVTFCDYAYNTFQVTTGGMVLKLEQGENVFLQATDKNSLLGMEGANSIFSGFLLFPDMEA
UniProt P02747, 29-245: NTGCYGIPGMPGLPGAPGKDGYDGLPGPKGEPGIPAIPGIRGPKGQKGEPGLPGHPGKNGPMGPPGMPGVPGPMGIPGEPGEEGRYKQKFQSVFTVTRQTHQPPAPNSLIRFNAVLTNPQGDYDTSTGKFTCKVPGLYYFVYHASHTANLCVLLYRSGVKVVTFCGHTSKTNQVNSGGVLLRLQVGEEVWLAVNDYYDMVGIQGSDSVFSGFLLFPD

Target: denosumab (as such; mean over the products) (human)
Assay: BLI

Kd: 0.07 µM
Substance: human complement component 1q (C1q) (from UniProt P02745;P02746;P02747) (complex)
